Results taken from patent publication US20260384421A1, “NOVEL COMPOUNDS THAT CAN BE USED AS THERAPEUTIC AGENTS” (published 2026).
Like-named read-outs stand apart in the source and are kept apart here.

Legend:
MDA-MB-231 cells = experiment: alamarBlue proliferation assay with MDA-MB-231 cells (glucose-free Leibovitz's L-15 medium)
JURKAT cells = experiment: alamarBlue proliferation assay with JURKAT cells; conditions: read-out: Activity on JURKAT (IC50), day 5
Description: (§1) These hyperproliferative processes can be benign or malignant and include hyperplasia, neoplasia, cancer and pre-cancerous lesions, and metastases. The antiproliferative activities of compounds falling under general formula (I) were investigated on human primary epidermal keratinocytes (HPEK) and human, murine and canine cell lines derived from hyperproliferative tissue or different cancer types, including MDA-MB-231, ZR-75-30, HCC-1395, HCC-1937, and T-47D all originating from cancer of the breast, JURKAT, RPMI-8402, LOUCY, TANQUE, REC-1, HL-60, NB-4 all originating from different types of blood cancer including lymphoma and leukemia of T-cells, B-cells and myeloid cells, TT originating from cancer of the neuroendocrine system, HeLa originating from cancer of the cervix, 23132/87, SW-948, and HCT-116 all originating from cancer of the gastrointestinal tract including stomach and colon, BHY originating from cancer of the mucosal epithelium, A-431 originating from cancer of the skin, HEP-G2 originating from cancer of the liver, NCI-H460 and A-549 both originating from cancer of the lung, PANC-1 originating from cancer of the pancreas, U-87 MG originating from cancer of the brain, A-375 and RVH-421 both originating from cancer of melanocytes, SW-1353 originating from cancer of bone-derived chondrocytes, C2C12 a mouse cell line originating from hyperproliferative muscle progenitor cells, LL/2 a mouse cell line originating from cancer of the lung, CF21.T a dog cell line originating from cancer of the connective tissue. To this end, according cells were seeded into 96-well plates (CORNING #3598) suitable for fluorescence assays at following initial cell numbers: 1000 cells per well for HPEK; 3000 cells per well for MDA-MB-231, 8000 cells per well for ZR-75-30, 1500 cells per well for HCC-1395, 1500 cells per well for HCC-1937, 3000 cells per well for T-47D, 1500 cells per well for JURKAT, 5000 cells per well for RPMI-8402, 9000 cells per well for LOUCY, 1500 cells per well for TANQUE, 9000 cells per well for REC-1, 1000 cells per well for HL-60, 1000 cells per well for NB-4, 9000 cells per well for TT, 2000 cells per well for HeLa, 2000 cells per well for 23132/87, 9000 cells per well for SW-948, 700 cells per well for HCT-116, 1500 cells per well for BHY, 700 cells per well for A-431, 1500 cells per well for HEP-G2, 500 cells per well for NCI-H460, 1000 cells per well for A-549, 1500 cells per well for PANC-1, 2500 cells per well for U-87 MG, 700 cells per well for A-375, 1500 cells per well for RVH-421, 2000 cells per well for SW-1353, 500 cells per well for C2C12, 500 cells per well for LL/2, and 3000 cells per well for CF21.T. In a volume of 90 μL per well of culture medium the cells were treated with compounds at indicated final concentrations by adding 10 μL per well of 10× compound working solutions from 1:100 pre-diluted 1000× compound DMSO stock-solutions in H2O (Water For Injection, WFI, Fisher Scientific, Gibco™ #A12873) or with the empty carrier DMSO (AppliChem, #A3672) at 0.1% v/v as control yielding a final volume of 100 μL per well. At day 5 after starting the treatments the cells were subjected to the alamarBlue® Proliferation Assay (Bio-Rad Serotec GmbH, BUF012B) according to the protocol of the manufacturer. The readout was taken with a multi-well plate-reader (Tecan Spark®) in the fluorescence mode with applying a filter for excitation at 560 nm (band width 10 nm) and for emission at 590 nm (band width 10 nm). Treatment for maximum proliferation inhibition with the commercial cytotoxic compound (S)-(+)-camptothecin (Fluorochem #M01564) at a concentration of 10 μM was included on each plate for assay quality control. Some of the test compounds of the present invention may have been obtained and applied as their salt forms.
(§2) The assays were performed in duplicate or more replicates of independent single experiments each containing a three- to six-fold replicate for every condition. […]

HL-60 cells = experiment: alamarBlue proliferation assay with HL-60 cells; conditions: read-out: Activity on HL-60: IC50, RPMI 1640 medium, 10% FBS
Description: as §1, §2

SW-948 cells = experiment: alamarBlue proliferation assay with SW-948 cells (glucose-free L-15 medium); conditions: read-out: Activity on SW-948: IC50, Leibovitz's L-15 medium, 10% FBS, 0% CO2
Description: as §1, §2

NCI-H460 cells = experiment: alamarBlue proliferation assay with NCI-H460 cells; conditions: read-out: Activity on NCI-H460: IC50, RPMI 1640 medium, 10% FBS
Description: as §1, §2

RVH-421 cells = experiment: alamarBlue proliferation assay with RVH-421 cells (glucose-free L-15 medium); conditions: read-out: Activity on RVH-421: IC50, Leibovitz's L-15 medium, 10% FBS, 0% CO2
Description: as §1, §2

TANQUE cells = experiment: alamarBlue proliferation assay with TANQUE cells; conditions: read-out: Activity on TANOUE: IC50, RPMI 1640 medium, 10% FBS
NB-4 cells = experiment: alamarBlue proliferation assay with NB-4 cells; conditions: read-out: Activity on NB-4: IC50, RPMI 1640 medium, 10% FBS
HCT-116 cells = experiment: alamarBlue proliferation assay with HCT-116 cells; conditions: read-out: Activity on HCT-116: IC50, McCoy's 5A medium, 10% FBS
BHY cells = experiment: alamarBlue proliferation assay with BHY cells; conditions: read-out: Activity on BHY: IC50, DMEM medium, 10% FBS
A-431 cells = experiment: alamarBlue proliferation assay with A-431 cells; conditions: read-out: Activity on A-431: IC50, DMEM medium, 10% FBS
Description: as §1, §2

A-549 cells = experiment: alamarBlue proliferation assay with A-549 cells; conditions: read-out: Activity on A-549: IC50, DMEM medium, 10% FBS
A-375 cells = experiment: alamarBlue proliferation assay with A-375 cells; conditions: read-out: Activity on A-375: IC50, DMEM medium, 10% FBS
Description: as §1, §2

LL/2 cells = experiment: alamarBlue proliferation assay with LL/2 cells; conditions: read-out: Activity on LL/2: IC50; LL/2 murine Lewis lung carcinoma cells, DMEM medium, 10% FBS
[1] = system: mitochondrial transmembrane potential Δψm in A-549 cells; experiment: mitochondrial activity assay (TMRE staining, mitochondrial transmembrane potential) on A-549 cells; conditions: A-549 cells, compounds at 10 μM, 2 h 40 min, TMRE staining, relative to DMSO = 1.0
Experimental: A decrease in mitochondrial function can be assessed by the relative quantification of the mitochondrial transmembrane potential Δψm. The Adm-decreasing activities of compounds falling under general formula (I) were investigated with tetramethylrhodamine ethyl ester (TMRE) staining on A-549 cells. Access and cultivation method of A-549 cells are as described above. To this end, according cells were seeded into 96-well plates suitable for fluorescence assays (Greiner Bio-One, #655090) at a cell number of 45'000 cells per well. Cells were incubated over night at 37 °C and 5% CO2. This was followed by a complete medium change with 100 μL per well of fresh culture medium pre-warmed to 37 °C. Cells were further incubated at 37 °C and 5% CO2 for three hours. Then the cells were treated with compounds at 10 μM final concentration by adding 100 μL per well of a 2× compound working solution of 1:50 pre-diluted compound DMSO stock-solutions in Hank's Balanced Salt Solution (HBSS, Fisher Scientific, Gibco™ #14025). Cells were incubated for 2 hours and 40 minutes at 37 °C and 5% CO2. Then cells were treated with TMRE (AAT-Bioquest, #22220) at 300 nM final concentration by adding 20 μL per well of a 10×TMRE working solution from a 1:5 pre-diluted TMRE DMSO stock-solution in H2O (Water For Injection, WFI, Fisher Scientific, Gibco™ #A12873). Cells were incubated for further 20 minutes at room temperature in the dark, gently shaking on an orbital shaker (IKA, MTS 2/4 Digital Shaker, shaking at 300 rpm). Extracellular TMRE signal was quenched by adding 20 μL per well of a 1.6 mM solution of Brilliant Black BN (Carl Roth, #7643) in H2O. Cells were further incubated for 60 min at room temperature. Then the readout was taken with a multi-well plate-reader (Tecan Spark®) in the fluorescence mode using a filter for excitation at 535 nm (band width 25 nm) and for emission at 595 nm (band width 35 nm) without plate lid. Treatment for strong decrease in Δψm with the commercial mitochondrial uncoupler compound 2,4-dinitrophenol (DNP, Sigma Aldrich-Merck #34334) at a final concentration of 50 μM was included on every plate for assay quality control.
The assays were performed in two independent biological replicates, each containing three technical replicates for every condition. For every individual plate, the measured fluorescence intensity values of the conditions with compound treatment were normalized against the corresponding equally weighted arithmetic mean of the fluorescence intensity values of the three DMSO treated control wells in order to obtain the relative values to a reference level of 1.0.
The weighted arithmetic mean and the combined standard deviation as defined in the present invention was calculated for each compound as described above. The DNP control decreased the relative mitochondrial transmembrane potential Δψm in A-549 cells to 0.2.

HEP-G2 cells = experiment: alamarBlue proliferation assay with HEP-G2 cells; conditions: read-out: Activity on HEP-G2: IC50, RPMI 1640 medium, 10% FBS
HPEKp cells = experiment: proliferation assay with human epidermal keratinocyte progenitors (HPEKp), selectivity versus MDA-MB-231; conditions: read-out: Activity (HPEK); HPEK cells (HPEKp); antiproliferative activity, class by IC50
[2] = read-out: Activity on MDA-MB-231 (IC50), glucose-free Leibovitz's L-15, 10% FBS, day 5, alamarBlue
[3] = read-out: Activity (MDA), MDA-MB-231 cells, antiproliferative activity, class by IC50

SMILES | IC50 (MDA-MB-231 cells; [2]) | IC50 (JURKAT cells) | IC50 (HL-60 cells) | IC50 (SW-948 cells) | IC50 (NCI-H460 cells) | IC50 (RVH-421 cells) | IC50 (TANQUE cells) | IC50 (NB-4 cells) | IC50 (HCT-116 cells) | IC50 (BHY cells) | IC50 (A-431 cells) | IC50 (A-549 cells) | IC50 (A-375 cells) | IC50 (LL/2 cells) | Activity: relative mitochondrial transmembrane potential Δψm [1] | IC50 (MDA-MB-231 cells; [3]) | IC50 (HEP-G2 cells) | IC50 (HPEKp cells)
CC(c1ccccc1)N1CCN(C(=O)c2ccc(Oc3ccc(C4CCC5(CC4)OCCO5)cc3C=O)cc2)CC1 (centres unmarked) | ≤ 200 nM | ≤ 5 µM | ≤ 5 µM | ≤ 5 µM | ≤ 5 µM | ≤ 1000 nM | – | – | – | – | – | – | – | – | – | – | – | –
O=C(c1ccc(Oc2ccc(C3CCCCC3)cc2CO)cc1)N1CCN(Cc2ccc(S(F)(F)(F)(F)F)cc2)CC1 | – | – | – | – | – | – | ≤ 200 nM | ≤ 200 nM | ≤ 200 nM | ≤ 200 nM | ≤ 200 nM | ≤ 200 nM | ≤ 200 nM | ≤ 200 nM | – | – | – | –
COc1cc(C2CCC(OC)CC2)ccc1Oc1ccc(C(=O)N2CCN(Cc3ccc(Cl)cc3)CC2)nc1 (centres unmarked) | – | – | – | – | – | – | ≤ 200 nM | ≤ 200 nM | ≤ 200 nM | ≤ 1000 nM | ≤ 1000 nM | ≤ 200 nM | ≤ 200 nM | ≤ 5000 nM | Δψm ≤0.7 | – | – | –
COC1CCC(c2ccc(Oc3ccc(C(=O)N4CCN(Cc5ccc(Cl)cc5)CC4)nc3)c(CO)c2)CC1 (centres unmarked) | ≤ 200 nM | – | – | – | – | – | ≤ 200 nM | ≤ 200 nM | ≤ 200 nM | ≤ 200 nM | ≤ 200 nM | ≤ 200 nM | ≤ 200 nM | ≤ 200 nM | – | < 1000 nM | ≤ 200 nM | < 10 µM
COc1ccc(CN2CCN(C(=O)c3ccc(Oc4ccc(C5CCC(OC)CC5)cc4)cn3)CC2)cc1 (centres unmarked) | ≤ 200 nM | – | – | – | – | – | ≤ 200 nM | ≤ 200 nM | ≤ 200 nM | ≤ 200 nM | – | ≤ 200 nM | ≤ 200 nM | ≤ 5000 nM | Δψm ≤0.7 | < 1000 nM | – | < 10 µM
COC1CCC(c2ccc(Oc3ccc(C(=O)N4CCN(Cc5ccc(Cl)cc5)CC4)nc3)cc2)CC1 (centres unmarked) | ≤ 200 nM | – | – | – | – | – | – | – | – | – | – | ≤ 200 nM | ≤ 200 nM | – | – | < 1000 nM | – | < 10 µM
O=Cc1cc(C2CCCCC2)ccc1Oc1ccc(C(=O)N2CCN(Cc3ccc(OC(F)(F)F)cc3)CC2)cc1 | – | – | – | – | – | – | ≤ 200 nM | ≤ 200 nM | ≤ 200 nM | ≤ 200 nM | ≤ 200 nM | ≤ 200 nM | ≤ 200 nM | ≤ 1000 nM | – | – | – | –
COC1CCC(c2ccc(Oc3ccc(C(=O)N4CCN(Cc5ccc(Cl)cc5)CC4)cc3)c(O)c2)CC1 (centres unmarked) | – | – | – | – | – | – | – | – | – | – | ≤ 5000 nM | ≤ 1000 nM | ≤ 1000 nM | – | – | – | – | –
